## Binding of CDR-mutated scFvs to a peptide of the spike HR2 region

The measurements come from Li et al. 2023 (doi:10.1038/s41467-023-39022-2) through the FLAb antibody collection.

All variants were tested on one target, the spike HR2 peptide PDVDLGDISGINAS (SARS-CoV-2).

Parent: Ab-14, a human scFv built as VH, a 15-residue (Gly4Ser)3 linker, VL. Only the CDRs of the heavy chain vary.
VH: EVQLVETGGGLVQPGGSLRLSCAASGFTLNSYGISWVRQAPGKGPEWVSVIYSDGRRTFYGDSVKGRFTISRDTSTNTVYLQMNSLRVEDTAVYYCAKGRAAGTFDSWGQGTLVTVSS
VL: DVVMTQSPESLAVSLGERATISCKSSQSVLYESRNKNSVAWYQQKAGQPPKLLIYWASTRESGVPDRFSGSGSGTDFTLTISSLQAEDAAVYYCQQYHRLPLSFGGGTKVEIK

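The parent was found by panning a naive human phage display library on the peptide. The variants were designed computationally from a first round of random CDR variants and then made and measured. Their group label is 14H_En_HC (En: ensemble of fine-tuned language models; HC: hill climbing; a sequence that several methods proposed may carry one label only). The assay is AlphaSeq: two haploid yeast populations carry antibody and antigen on their surface. The frequency of each diploid, read from paired DNA barcodes, reflects how well the two displayed proteins bind. The ratio of observed to expected reads was calibrated, replicate by replicate, on BCL2-family standards whose Kd was known from biolayer interferometry. Mating was done six times.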

Each variant's VH is given in full. Numbers give log10(Kd / nM), so 0 is 1 nM and 3 is 1 µM. Smaller is tighter. Averages over replicates are reported, and they cover detected replicates only. An entry "ND" has no value in the source: the pair was not observed among the diploids in that replicate. This suggests poor binding but is not conclusive. Of ten entries with the parent sequence, four were seen in most replicates (averages 0.34 to 2.37), three in one and three in none, so single entries are noisy. The authors averaged sequences with at least three values out of six and counted those with two or fewer as poor binders. A sequence measured in both rounds can read differently, since the two assays cover different ranges. As a blank, each scFv also met three strains without target: over all heavy chain designs, 1% of these pairings were detected, typically at 2.08 and seldom below 0.84. The control count says in how many pairings with the empty strains this scFv gave a signal, with their mean in brackets.

VH	log10 Kd (nM) by replicate	log10 Kd (nM), mean	signal with controls
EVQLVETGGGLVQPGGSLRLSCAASGFTLDEYGISWVRQAPGKGPEWVSVIYADGRRTFYSDSVKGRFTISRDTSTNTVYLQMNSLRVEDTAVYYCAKGQTAGTFDVWGQGTLVTVSS	-0.60 / -0.72 / -1.15 / -0.59 / -0.34 / -0.61	-0.67	0 of 18
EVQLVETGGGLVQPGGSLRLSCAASGFDLNEYGISWVRQAPGKGPEWVSVIYADGRRTFYSDSVKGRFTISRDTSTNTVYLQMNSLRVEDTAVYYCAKGEVAGTFDKWGQGTLVTVSS	0.68 / -0.84 / -0.88 / ND / -1.05 / -0.22	-0.46	0 of 18
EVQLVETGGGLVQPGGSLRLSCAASGFDLEDYGISWVRQAPGKGPEWVSVIYADGKRTFYSDSVKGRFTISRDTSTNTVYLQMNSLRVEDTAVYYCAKGEIAGTFDSWGQGTLVTVSS	0.22 / ND / 1.11 / ND / ND / ND	0.66	0 of 18
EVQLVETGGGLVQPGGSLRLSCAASGFNLNEYGISWVRQAPGKGPEWVSVIYADGRRSFYADSVKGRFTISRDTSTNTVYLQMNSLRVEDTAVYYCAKGEAAGTFDVWGQGTLVTVSS	-0.50 / -0.50 / -0.77 / -0.84 / -0.93 / -0.49	-0.67	0 of 18
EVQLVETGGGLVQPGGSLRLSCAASGFTLDEYGISWVRQAPGKGPEWVSVIYADGRRTFYADSVKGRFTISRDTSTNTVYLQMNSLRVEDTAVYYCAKGNVAGTFDVWGQGTLVTVSS	-0.58 / -0.71 / -0.63 / -0.63 / -0.79 / -0.49	-0.64	0 of 18
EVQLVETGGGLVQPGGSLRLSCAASGFDLNEYGISWVRQAPGKGPEWVSVIYADGQRTFYADNVKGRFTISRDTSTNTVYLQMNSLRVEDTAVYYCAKGNVAGTFDQWGQGTLVTVSS	-0.45 / -0.19 / -0.28 / -1.00 / -0.62 / -0.02	-0.43	0 of 18
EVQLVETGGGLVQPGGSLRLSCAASGFDLNEYGISWVRQAPGKGPEWVSVIYADGMRTFYDDSVKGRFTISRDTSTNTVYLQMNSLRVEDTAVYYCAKGQLAGTFDLWGQGTLVTVSS	-0.32 / -0.43 / -0.40 / -0.66 / -0.47 / -0.26	-0.42	0 of 18
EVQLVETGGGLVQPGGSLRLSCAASGFNLNEYGISWVRQAPGKGPEWVSVIYADGRRTFYADSVKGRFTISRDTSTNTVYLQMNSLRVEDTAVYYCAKGEQAGTFDMWGQGTLVTVSS	-0.28 / ND / 1.66 / 1.19 / 0.11 / -0.42	0.45	0 of 18
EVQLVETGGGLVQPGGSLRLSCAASGFDLNEYGISWVRQAPGKGPEWVSVIYADGRRTFYVDSVKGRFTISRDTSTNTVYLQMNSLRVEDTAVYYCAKGNNAGTFDVWGQGTLVTVSS	-0.12 / -0.01 / -0.41 / -0.76 / -0.94 / 0.14	-0.35	0 of 18
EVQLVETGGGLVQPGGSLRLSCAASGFDLNEYGISWVRQAPGKGPEWVSVIYADGRRTFYSDSVKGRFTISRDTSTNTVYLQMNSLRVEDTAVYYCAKGEAAGTFDMWGQGTLVTVSS	-0.45 / -0.74 / -0.96 / -0.49 / -0.54 / -0.44	-0.60	0 of 18
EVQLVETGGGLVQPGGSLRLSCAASGFDLDEYGISWVRQAPGKGPEWVSVIYADGRRTAYTDSVKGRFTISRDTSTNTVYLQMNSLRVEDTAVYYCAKGTNAGTFDVWGQGTLVTVSS	0.77 / -1.38 / -1.04 / -1.55 / ND / -0.53	-0.75	0 of 18
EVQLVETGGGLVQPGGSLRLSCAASGFQLDEYGISWVRQAPGKGPEWVSVIYADGRRTFYADSVKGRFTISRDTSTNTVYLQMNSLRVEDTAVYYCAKGENAGTFLMWGQGTLVTVSS	ND / 1.67 / 1.81 / ND / 2.40 / 1.24	1.78	1 of 18 (1.58)
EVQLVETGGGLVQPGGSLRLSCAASGFDLDEYGISWVRQAPGKGPEWVSVIYADGRRTFYQDSVKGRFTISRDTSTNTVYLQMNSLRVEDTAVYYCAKGNVAGTFDSWGQGTLVTVSS	-1.01 / -1.03 / -0.82 / -1.26 / -1.25 / -0.88	-1.04	0 of 18
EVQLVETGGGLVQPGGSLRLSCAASGFDLNEYGISWVRQAPGKGPEWVSVIYADGRRTVYADSVKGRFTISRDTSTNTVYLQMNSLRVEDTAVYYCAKGEAAGTFDVWGQGTLVTVSS	-0.63 / -0.89 / -0.89 / -1.00 / -1.34 / -0.72	-0.91	0 of 18